Literature values, collected in patent publication CN114831954A, “一种左氧氟沙星片” (priority 2022, dated 2022).

Conditions: oral, background statement

With `CC1COc2c(N3CCN(C)CC3)c(F)cc3c(=O)c(C(=O)O)cn1c23` (stereo not shown) [氧氟沙星] as the compound, how does the “effect of food intake on bioavailability” value read?
Its value is “生物利用度受进食影响很小”.
